One assay concerns the target CK1δ (Homo sapiens, UniProt P48730). To be noted: cited from earlier work.
The target of another assay is CK1ε (Homo sapiens, UniProt P49674). Briefly: CK1ε inhibition (IC50). Type of assay: biochemical.

The chains behind the UniProt entries cited, without tags or fusion partners. Where a name states a change or a piece, a line headed by the entry shows the natural chain unless it says otherwise.
UniProt P48730: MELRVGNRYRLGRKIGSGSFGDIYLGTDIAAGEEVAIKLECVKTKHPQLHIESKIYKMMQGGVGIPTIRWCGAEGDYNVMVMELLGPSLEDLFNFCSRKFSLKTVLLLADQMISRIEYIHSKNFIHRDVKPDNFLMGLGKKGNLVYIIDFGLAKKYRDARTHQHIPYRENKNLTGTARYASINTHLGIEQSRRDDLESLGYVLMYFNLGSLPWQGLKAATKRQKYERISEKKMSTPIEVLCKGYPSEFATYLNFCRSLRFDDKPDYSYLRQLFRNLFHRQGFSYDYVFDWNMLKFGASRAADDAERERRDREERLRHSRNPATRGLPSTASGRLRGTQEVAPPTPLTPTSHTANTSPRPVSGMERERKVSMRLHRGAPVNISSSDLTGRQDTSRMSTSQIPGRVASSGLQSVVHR
UniProt P49674: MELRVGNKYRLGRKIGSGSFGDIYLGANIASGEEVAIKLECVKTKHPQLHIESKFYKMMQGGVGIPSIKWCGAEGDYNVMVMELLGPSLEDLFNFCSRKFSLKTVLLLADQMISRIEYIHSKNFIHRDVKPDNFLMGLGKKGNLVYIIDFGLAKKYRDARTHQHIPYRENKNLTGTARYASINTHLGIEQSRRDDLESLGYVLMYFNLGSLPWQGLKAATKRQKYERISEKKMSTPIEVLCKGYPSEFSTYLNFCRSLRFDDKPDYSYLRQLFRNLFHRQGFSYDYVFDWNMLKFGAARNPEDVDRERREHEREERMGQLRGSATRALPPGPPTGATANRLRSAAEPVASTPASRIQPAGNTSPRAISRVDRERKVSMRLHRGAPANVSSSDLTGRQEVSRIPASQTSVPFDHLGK

Take `NC(=O)c1ccc(-c2nc(-c3ccc4c(c3)OCO4)c(-c3ccccn3)[nH]2)cc1` [SB431542]: the IC50 is 920 nM at CK1δ and 646 nM on CK1ε.

Values taken from patent US11975005B2, “Treatment of respiratory diseases” (TIANLI BIOTECH PTY LTD, priority 2015, dated 2024).
